Values of other authors in article PMC3419816 (Journal of molecular neuroscience : MN, 2012).

Test system: epidermal growth factor receptor (EGFR)
Details: cited from earlier work

For `COc1cc2ncnc(Nc3ccc(F)c(Cl)c3)c2cc1OCCCN1CCOCC1` [gefitinib], the “effect on PACAP-induced EGFR tyrosine phosphorylation” value is given as “inhibited”.
